# Experimental data taken from article PMC9365693, “Teixobactin kills bacteria by a two-pronged attack on the cell envelope” (Nature, 2022).
# Experiment: HS-AFM of teixobactin–lipid II fibrils on supported lipid bilayer
# Conditions: microscopy experiments
# Method: The HS-AFM images were acquired in amplitude modulation tapping mode in liquid using a high-speed atomic force microscope (RIBM). Short cantilevers (approximately 7 μm) with a nominal spring constant of 0.15 N m^−1 were used (USC-F1.2-k0.15, NanoWorld). A minimal imaging force was applied by using a small set-point amplitude of 0.8 nm (for a 1 nm free amplitude). […] The lipid bilayer was obtained by incubating LUVs containing DOPC and lipid II (prepared as mentioned above) on top of a freshly cleaved mica for 20–30 min. […] Imaging was started on the lipid bilayer surface in recording buffer. […] Images were primarily processed using built-in scripts (RIBM) in Igor Pro (Wavemetrics) and analysed using ImageJ software. The images or videos were corrected minimally for tilt, drift and contrast. […] Image acquisition rate varies from 0.5 frames per second to 2 frames per seconds (see Fig. 2, Extended Data Figs. 5, 6, or legends of Supplementary Videos 1 and 2), and the line rate varies from 150 lines per second to 400 lines per second. […] Stated errors are standard deviation.
substance,measurement,value
teixobactin,stability of the supramolecular fibrils (in words),stable for hours
